From ChEMBL document CHEMBL3621150, “Characterization of 2,4-Diamino-6-oxo-1,6-dihydropyrimidin-5-yl Ureido Based Inhibitors of Trypanosoma brucei FolD and Testing for Antiparasitic Activity” (J Med Chem, 2015)

These molecules were tested on Trypanosoma brucei brucei (assay: Antiparasitic activity against bloodstream form of Trypanosoma brucei brucei 427 […] assessed as growth inhibition after 72 hrs by Alamar Blue assay).
Assay type: functional, organism-based

Row | Structure (SMILES) | growth inhibition (GI)
1 | CCOC(=O)c1ccc(NC(=O)Nc2c(N)nc(N)[nH]c2=O)cc1 | Dose-dependent effect
2 | CCOC(=O)CC[C@H](NC(=O)c1ccc(NC(=O)Nc2c(N)nc(N)[nH]c2=O)cc1)C(=O)OCC | Dose-dependent effect
3 | Nc1nc(N)c(NC(=O)Nc2ccc(C(=O)N[C@@H](CCC(=O)O)C(=O)O)cc2)c(=O)[nH]1 | Dose-dependent effect
4 | Nc1nc2c(c(=O)[nH]1)N1C(=O)N(c3ccc(C(=O)NC(CCC(=O)O)C(=O)O)cc3)CC1CN2 (stereo not given) | Dose-dependent effect
5 | Nc1nc(N)c(NC(=O)Nc2ccc(C(=O)O)cc2)c(=O)[nH]1 | Dose-dependent effect
